Measured affinities in a library of Ab-91 heavy chain variants

Data: MIT Lincoln Laboratory AlphaSeq set, Engelhart et al. 2022, doi:10.1038/s41597-022-01779-4, as distributed in FLAb.

Target: peptide PDVDLGDISGINAS, taken from heptad repeat 2 (HR2) of SARS-CoV-2 spike.

Ab-91 is the parent antibody, in scFv form: VL, then a (GGGGS)3 linker, then VH. The light chain is unchanged in all variants.
VL: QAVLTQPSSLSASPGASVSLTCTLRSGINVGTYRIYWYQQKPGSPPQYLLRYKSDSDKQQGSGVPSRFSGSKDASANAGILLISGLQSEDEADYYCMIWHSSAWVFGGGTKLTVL
VH: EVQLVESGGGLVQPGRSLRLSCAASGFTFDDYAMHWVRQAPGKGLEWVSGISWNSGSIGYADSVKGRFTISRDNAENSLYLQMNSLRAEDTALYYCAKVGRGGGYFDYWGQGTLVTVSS

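In library AAYL51, one, two or three CDR residues were substituted; doubles and triples were drawn at random. Affinity was read by AlphaSeq, a pooled yeast mating assay with surface-displayed partners. The frequency of each diploid, read from paired DNA barcodes, reflects how well the two displayed proteins bind. The ratio of observed to expected reads was calibrated, replicate by replicate, on BCL2-family standards whose Kd was known from biolayer interferometry. The assay was run in three technical replicates.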

Substitutions are numbered in sequence along the VH above, starting at 1 (not Kabat). Numbers give log10(Kd / nM), so 0 is 1 nM and 3 is 1 µM. Smaller is tighter. The mean shown is taken over the replicates in which the pair was detected. "nd" means that the variant was in the library but no mating with the target was seen in that replicate; the authors take this as a sign of poor binding, and no number exists. As a blank, each scFv also met three strains without target: over library AAYL51, 21% of these pairings were detected, typically at 4.54 and seldom below 3.26. For each scFv, signals with the empty controls are counted beside the result, with their mean in brackets.

changes,log10 Kd (nM) by replicate,"log10 Kd (nM), mean",empty controls
M34S D107L,nd / nd / nd,nd,1/9 (4.30)
S55T V99H Y108G,3.30 / 2.58 / 3.65,3.17,1/9 (3.76)
D31T S52F I58A,nd / nd / nd,nd,0/9
D31N Y32M,nd / nd / nd,nd,1/9 (3.58)
F29R G104L Y108P,4.72 / 5.76 / nd,5.24,2/9 (4.94)
S57G G103Q F106L,2.16 / 2.36 / 2.14,2.22,0/9
S52V A61E F106Q,nd / nd / nd,nd,0/9
D31Q S57G V99H,3.89 / 4.48 / nd,4.19,4/9 (5.13)
G26W G59I S63V,nd / 4.37 / 5.62,4.99,4/9 (5.23)
W53Q V64Y K65W,nd / 4.05 / 3.41,3.73,1/9 (3.43)
G50R G100M F106Y,5.49 / nd / nd,5.49,3/9 (4.74)
Y32S S55A Y105A,2.35 / 3.04 / 2.50,2.63,3/9 (4.45)
S55R G102P Y108A,nd / nd / nd,nd,0/9
F29C D31F R101M,nd / nd / nd,nd,0/9
F27A D30S S57D,3.32 / 2.93 / nd,3.13,3/9 (4.61)
N54H V99S G100P,nd / 5.18 / nd,5.18,6/9 (4.78)
K65L V99C Y105W,5.47 / 5.32 / 5.79,5.53,7/9 (5.07)
F29N H35T G59L,5.08 / nd / nd,5.08,2/9 (4.09)
G26A M34Y S63T,nd / nd / nd,nd,1/9 (2.83)
F29T D62C V99M,5.07 / nd / 4.71,4.89,4/9 (5.03)
F27Q D31V A61I,nd / 4.34 / nd,4.34,0/9
F27L G50P G100N,5.60 / 5.19 / 5.57,5.45,6/9 (4.69)
D31R R101N D107Y,nd / 6.06 / nd,6.06,2/9 (4.25)
F29E M34A,5.26 / nd / 5.81,5.53,5/9 (4.92)
F29L I58P Y60C,nd / nd / 4.23,4.23,2/9 (4.28)
Y32G H35Q Y60I,5.42 / nd / nd,5.42,2/9 (4.56)
G50N Y105K,5.19 / nd / nd,5.19,5/9 (4.44)
F27L I58R D107K,3.77 / nd / nd,3.77,1/9 (5.37)
F27P I51K S55D,5.57 / nd / nd,5.57,0/9
S55P S63V K65H,4.16 / 4.29 / 4.94,4.46,6/9 (4.69)
K65I G102A G103L,3.30 / nd / nd,3.30,1/9 (3.18)
A33E M34Q W53M,nd / nd / nd,nd,0/9
D31V M34G G104D,nd / nd / nd,nd,1/9 (4.33)
D30H W53L G103I,1.35 / 1.34 / 0.69,1.13,6/9 (4.67)
S55H Y105A Y108G,nd / nd / nd,nd,0/9
D30H G102C,3.14 / 3.19 / 4.22,3.52,3/9 (4.32)
D62M V64R G103C,4.47 / 4.71 / nd,4.59,2/9 (5.23)
F29L Y32F G59V,5.36 / nd / 5.54,5.45,4/9 (5.14)
I51G A61G S63F,nd / nd / nd,nd,1/9 (3.31)
G50F Y60C D62L,nd / nd / nd,nd,1/9 (4.06)
F29A M34L W53G,nd / nd / nd,nd,0/9
D31R S55E G103C,4.55 / nd / nd,4.55,0/9
S63H K65D G102Y,3.77 / 4.33 / 3.83,3.98,4/9 (4.67)
S55V G104V Y105F,nd / 3.39 / nd,3.39,4/9 (4.71)
D30W M34C S52L,nd / nd / nd,nd,2/9 (3.21)
Y60A G104L,nd / nd / nd,nd,0/9
T28H Y32D Y108R,3.77 / 5.15 / nd,4.46,2/9 (4.57)
T28Y N54K G100T,4.31 / 3.73 / 5.01,4.35,3/9 (4.44)
F27S Y32G A61R,nd / nd / nd,nd,0/9
N54R V64W Y108K,4.97 / nd / 4.85,4.91,6/9 (4.94)
G50K G100D Y108S,nd / nd / nd,nd,1/9 (4.34)
F27K K65Y,4.08 / nd / 5.12,4.60,3/9 (5.14)

Again, the first 7 entries without any signal:

changes	log10 Kd (nM) by replicate	log10 Kd (nM), mean	empty controls
M34S D107L	nd / nd / nd	nd	1/9 (4.30)
D31T S52F I58A	nd / nd / nd	nd	0/9
D31N Y32M	nd / nd / nd	nd	1/9 (3.58)
S52V A61E F106Q	nd / nd / nd	nd	0/9
S55R G102P Y108A	nd / nd / nd	nd	0/9
F29C D31F R101M	nd / nd / nd	nd	0/9
G26A M34Y S63T	nd / nd / nd	nd	1/9 (2.83)